The subject of this assay is Carybdea alata venom in isolated red blood cells (2% RBC). Briefly: Hemolysis induced by Carybdea alata venom in 2% RBC. Type of assay: cell-based, human.

Turning to zinc gluconate, the half-time of hemolysis result (2% RBC, increasing amounts of zinc gluconate, 0.62 mM to 5 mM, FIG. 5B) is reported as “delays”. Where the note is “with zinc gluconate, slowed from 10 minutes, venom dose 6.4 U/ml”, this substance had a T½ of lysis of 40 min.

The record behind these values is patent US20130078317A1, “ZINC-CONTAINING COMPOSITIONS FOR THE TREATMENT OF DISEASES, ILLNESSES AND SYNDROMES ASSOCIATED WITH EXPOSURE TO PORE FORMING TOXINS” (priority 2009, published 2013).
